Reference: patent publication US9233109B2, “Compositions, methods of use, and methods of treatment” (UNIVERSITY OF FLORIDA RESEARCH FOUNDATION, INC., priority 2010, dated 2016)

Protein sequences, listed by entry. Tags and fused reporters are not part of them. Residues count along the entry.
UniProt P17787, 26-502: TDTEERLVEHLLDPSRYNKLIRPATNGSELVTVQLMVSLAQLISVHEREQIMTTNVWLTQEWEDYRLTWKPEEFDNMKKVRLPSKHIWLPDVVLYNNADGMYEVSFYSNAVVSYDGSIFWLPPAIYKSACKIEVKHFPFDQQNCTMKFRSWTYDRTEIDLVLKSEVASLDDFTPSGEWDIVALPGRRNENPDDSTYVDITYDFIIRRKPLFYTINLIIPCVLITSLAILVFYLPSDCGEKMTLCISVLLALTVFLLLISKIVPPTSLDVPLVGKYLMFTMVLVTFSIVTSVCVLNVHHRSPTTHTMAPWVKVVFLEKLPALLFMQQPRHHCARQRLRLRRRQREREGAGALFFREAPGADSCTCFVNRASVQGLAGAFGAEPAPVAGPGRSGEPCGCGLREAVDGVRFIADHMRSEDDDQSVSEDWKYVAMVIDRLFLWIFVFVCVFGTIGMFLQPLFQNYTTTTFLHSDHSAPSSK
UniProt P43681, 29-627 limits assumed: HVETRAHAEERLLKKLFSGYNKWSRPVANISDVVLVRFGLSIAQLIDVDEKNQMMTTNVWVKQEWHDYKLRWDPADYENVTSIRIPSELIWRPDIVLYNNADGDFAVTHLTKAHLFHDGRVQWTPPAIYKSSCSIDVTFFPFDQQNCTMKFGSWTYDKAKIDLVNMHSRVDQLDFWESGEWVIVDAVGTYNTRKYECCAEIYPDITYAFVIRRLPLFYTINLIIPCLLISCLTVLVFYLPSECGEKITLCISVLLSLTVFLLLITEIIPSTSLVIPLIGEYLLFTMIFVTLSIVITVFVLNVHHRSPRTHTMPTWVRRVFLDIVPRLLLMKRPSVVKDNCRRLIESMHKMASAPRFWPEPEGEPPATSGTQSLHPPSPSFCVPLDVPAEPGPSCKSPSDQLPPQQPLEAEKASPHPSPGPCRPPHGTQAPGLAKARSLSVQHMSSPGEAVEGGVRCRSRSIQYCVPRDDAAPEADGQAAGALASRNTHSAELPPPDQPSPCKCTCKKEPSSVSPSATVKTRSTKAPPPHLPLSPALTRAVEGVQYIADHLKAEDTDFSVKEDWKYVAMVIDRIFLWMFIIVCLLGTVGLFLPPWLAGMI
UniProt P36544, 23-502: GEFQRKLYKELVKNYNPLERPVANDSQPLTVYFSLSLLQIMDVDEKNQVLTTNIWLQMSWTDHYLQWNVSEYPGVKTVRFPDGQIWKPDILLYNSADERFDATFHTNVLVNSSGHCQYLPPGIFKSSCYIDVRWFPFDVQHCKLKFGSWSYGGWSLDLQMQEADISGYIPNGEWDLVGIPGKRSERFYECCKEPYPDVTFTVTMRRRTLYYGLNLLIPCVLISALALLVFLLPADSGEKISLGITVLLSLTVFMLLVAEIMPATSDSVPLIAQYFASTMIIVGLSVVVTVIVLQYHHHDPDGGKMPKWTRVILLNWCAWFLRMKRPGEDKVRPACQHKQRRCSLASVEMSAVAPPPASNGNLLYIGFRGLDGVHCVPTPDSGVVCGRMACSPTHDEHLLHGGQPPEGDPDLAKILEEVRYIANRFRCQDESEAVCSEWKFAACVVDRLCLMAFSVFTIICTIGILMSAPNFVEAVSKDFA

Columns and labels:
Type in all cases: cell-based
[1] = target: T1, HS α4β2 (α4(2)β2(3)) nAChR (Homo sapiens, UniProt P17787+P43681); test: Bath application of test compound: inhibition of ACh-evoked peak currents in Xenopus oocytes
T1 construct: expressed in transfected cells; host or cells: Xenopus laevis oocytes injected with cRNA
Description: (§1) We have extended this approach to defined receptor subtypes expressed in Xenopus oocytes. Experiments were conducted on cells expressing HS α4β2 (α4(2)β2(3)), LS α4β2 (α4(3)β2(2)), or α7 nAChR.
(§2) cDNA: Human nAChR receptor clones and concatamers were obtained from Dr. Jon Lindstrom (University of Pennsylvania, Philadelphia Pa.). The human RIC-3 clone, obtained from Dr. Millet Treinin (Hebrew University, Jerusalem Israel), was co-injected with α7 to improve the levels and speed of receptor expression.
(§3) Oocyte preparation: Oocytes were surgically removed from mature Xenopus laevis frogs and injected with 50 nl (5-20 ng) of appropriate nAChR subunit cRNAs as described previously (Horenstein et al., 2008).
(§4) Experiments were conducted using OpusXpress 6000A (Molecular Devices, Union City Calif.) and analyzed as described previously (Papke and Papke, 2002; Horenstein et al., 2008; Papke and Stokes, 2010).
(§5) Initial experiments were run for 50 minutes after the introduction of the experimental compounds into the bath.

[2] = target: T2, LS α4β2 (α4(3)β2(2)) nAChR (Homo sapiens, UniProt P17787+P43681); test: as above
T2 construct: expressed in transfected cells; host or cells: Xenopus laevis oocytes injected with cRNA
Description: as §1, §2, §3, §4, §5

α7 nAChR = target: T3, α7 nAChR (Homo sapiens, UniProt P36544); test: Bath application of test compound: modulation of ACh-evoked net charge responses in Xenopus oocytes; conditions: read-out: IC50, inhibition of ACh-evoked responses by prolonged bath application
T3 construct: expressed in transfected cells; host or cells: Xenopus laevis oocytes injected with cRNA
Description: as §1, §2, §3, §4, §5

| Compound | IC50 [1] [µM] | IC50 [2] [mM] | IC50 (α7 nAChR) [nM] |
| --- | --- | --- | --- |
| C[N+](C)(C)CCO [choline] | 100 ± 80 | > 1 | – |
| c1cnc2cc3c(cc2n1)C1CNCC3C1 [Varenicline, 7,8,9,10-tetrahydro-6,10-methano-6H-pyrazino (2,3-h)(3) benzazepine] | – | – | 334 ± 132 |
